Assay results published in US5434182A (priority 1993, dated 1995).

Tested on: Herpes Simplex Virus-1
Assay: microbe, parasite or virus in culture
Conditions: Human alphaherpesvirus 1, read-out: Reduction in Herpes Simplex Virus-1 Titer

CCCCCCCCCC(=O)OCC(O)CO (racemic) [Monocaprin (10:0), 1-Monodecanoyl-rac-glycerol]
log reduction at 15000 µM: ≥ 4
